The entries are a selection whose mix differs from that of the whole data set. Active and inactive are the calls of the source.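 Rule for the calls: active = inhibition or corrected inhibition above about 18%, plus a signal ratio from 0.5 to 1.5 (limit read from the data, passing the limit was not always enough); inactive = the rest.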
Molecular target: Neuropilin-1 (Homo sapiens) (UniProt O14786)
Assay: modulators of CendR peptide binding to NRP-1, primary screen, biochemical, fluorescence polarization, uHTS (AID 602438)
Conditions: FAM-RPARPAR peptide binding to NRP-1, fluorescence polarization; at 25 µM; stronger effect = higher value

By UniProt entry, the sequences of proteins in these tests, tags left out.
UniProt O14786, whole entry: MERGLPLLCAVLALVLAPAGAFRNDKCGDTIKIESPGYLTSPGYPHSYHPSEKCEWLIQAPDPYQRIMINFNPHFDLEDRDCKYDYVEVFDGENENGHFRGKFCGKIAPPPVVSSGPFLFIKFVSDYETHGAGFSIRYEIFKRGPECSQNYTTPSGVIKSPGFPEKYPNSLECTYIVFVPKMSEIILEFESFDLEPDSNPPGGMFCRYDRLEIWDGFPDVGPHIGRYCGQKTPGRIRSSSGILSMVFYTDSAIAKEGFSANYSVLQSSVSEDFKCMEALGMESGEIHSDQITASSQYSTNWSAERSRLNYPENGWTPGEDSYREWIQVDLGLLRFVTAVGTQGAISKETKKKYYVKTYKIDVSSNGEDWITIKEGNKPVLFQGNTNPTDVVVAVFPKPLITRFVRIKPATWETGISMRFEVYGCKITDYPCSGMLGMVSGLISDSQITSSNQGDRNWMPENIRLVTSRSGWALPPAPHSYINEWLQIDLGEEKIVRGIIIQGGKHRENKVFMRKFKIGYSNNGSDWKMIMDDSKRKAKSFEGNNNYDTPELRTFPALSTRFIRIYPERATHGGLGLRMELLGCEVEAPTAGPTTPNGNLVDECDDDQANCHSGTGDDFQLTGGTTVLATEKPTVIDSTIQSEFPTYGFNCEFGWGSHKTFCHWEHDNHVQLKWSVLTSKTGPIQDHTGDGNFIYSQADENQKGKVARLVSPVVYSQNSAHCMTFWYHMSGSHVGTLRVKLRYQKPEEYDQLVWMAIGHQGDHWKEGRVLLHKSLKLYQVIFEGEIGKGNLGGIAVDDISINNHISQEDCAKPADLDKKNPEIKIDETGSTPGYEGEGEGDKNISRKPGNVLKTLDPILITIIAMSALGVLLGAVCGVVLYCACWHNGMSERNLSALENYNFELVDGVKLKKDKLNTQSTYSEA

| Compound | inhibition |
| --- | --- |
| CC(C)(C)n1nnnc1C(c1ccccc1OC(F)(F)F)N1CCC(n2c(=O)[nH]c3ccccc32)CC1 (centres undefined) | inactive: 5.2% |
| O=C(NCC1(N2CCCCC2)CCCCC1)c1ccc(OC(F)F)cc1 | inactive: 0.7% |
| O=C(NCC1(N2CCCCC2)CCCCC1)c1cccc([N+](=O)[O-])c1 | inactive: 1.2% |
| CSc1ccc(C(=O)NCC2(N3CCOCC3)CCCCC2)cc1 | inactive: -3% |
| CCN1CCC(Nc2ccc(Cl)cc2)CC1 | inactive: 10.6% |
| N#CC1(Nc2ccccc2)CCN(CCc2ccccc2)CC1 | inactive: 7.3% |
| O=c1[nH]c2ccccc2n1C1CCN(C(c2ccccc2OC(F)(F)F)c2nnnn2C2CCCC2)CC1 (centres undefined) | inactive: -0.4% |
| O=C(NCC1(N2CCCCC2)CCCCC1)c1cncc(Br)c1 | inactive: 10.6% |
| CN1CCC(Nc2cccc(F)c2)CC1 | inactive: -1.8% |
| Cc1ccc(C(=O)NCC2(N(C)C)CCCCC2)o1 | inactive: 7.6% |
| CCCOc1ccc(C(=O)NCC2(N(C)C)CCCCC2)cc1OC | inactive: -4.8% |
| COc1ccc(C(c2nnnn2C2CCCC2)N2CCC(n3c(=O)[nH]c4ccccc43)CC2)cc1 (centres undefined) | inactive: 16.2% |
| COc1ccc(CN(CCCl)CCCl)cc1Cl | inactive: -11.7% |
| CN(C)c1cccc(C(=O)NCC2(N3CCCCC3)CCCCC2)c1 | inactive: 1.4% |
| CCCCn1nnnc1C(c1ccccc1OC(F)(F)F)N1CCC(n2c(=O)[nH]c3ccccc32)CC1 (centres undefined) | inactive: 6.4% |
| CC(C)c1ccc(NC2CCN(C(=O)OC(C)(C)C)CC2)cc1 | inactive: 1.2% |
| CCCCn1nnnc1C(c1ccnc2ccccc12)N1CCC(n2c(=O)[nH]c3ccccc32)CC1 (centres undefined) | inactive: 1.9% |
| COc1cc(OC)c(C(=O)NCC2(N(C)C)CCCCC2)cc1OC | inactive: -1.3% |
| CCC(c1nnnn1C(C)(C)C)N1CCC(n2c(=O)[nH]c3ccccc32)CC1 (centres undefined) | inactive: -2.8% |
| O=C(NCC1(N2CCOCC2)CCCCC1)c1cc(F)c(F)cc1Cl | inactive: -3.3% |
| O=C(NCC1(N2CCOCC2)CCCCC1)c1cc2ccccc2o1 | inactive: -4.8% |
| O=c1[nH]c2ccccc2n1C1CCN(C(c2ccccc2OC(F)(F)F)c2nnnn2C2CCCCC2)CC1 (centres undefined) | inactive: 5.7% |
| O=C(NCC1(N2CCCCC2)CCCCC1)c1ccc(Cl)nc1 | inactive: 1.2% |
| Cc1cc(C)cc(N(C(=O)c2ccccc2)C2CCN(C(=O)OC(C)(C)C)CC2)c1 | inactive: -11.2% |
| CCOC(=O)N1CCC(Nc2ccc(OC)cc2)CC1 | inactive: 11.6% |
| CCCCn1nnnc1C(c1ccc(OC)cc1)N1CCC(n2c(=O)[nH]c3ccccc32)CC1 (centres undefined) | inactive: 15.9% |
| O=C(OC1CN2CCC1CC2)C1c2ccccc2Oc2ccccc21 (centres undefined) | inactive: 15.4% |

| Compound | inhibition |
| --- | --- |
| O=c1[nH]c2ccccc2n1C1CCN(C(c2cc3ccccc3o2)c2nnnn2C2CCCCC2)CC1 (centres undefined) | inactive: 1.5% |
| O=C(NCC1(N2CCCCC2)CCCCC1)c1ccc(Cl)s1 | inactive: 6.5% |
| N#CC1(Nc2ccccc2)CCN(Cc2ccccc2)CC1 | inactive: 8.7% |
| COc1ccc(Cl)cc1C(=O)NCC1(N2CCOCC2)CCCCC1 | inactive: 7.6% |
| O=C(NCC1(N2CCCCC2)CCCCC1)c1ccc(=O)[nH]c1 | inactive: -12.3% |
| CCCCn1nnnc1C(c1cccs1)N1CCC(n2c(=O)[nH]c3ccccc32)CC1 (centres undefined) | inactive: 5% |
| CCCCn1nnnc1C(CC)N1CCC(n2c(=O)[nH]c3ccccc32)CC1 (centres undefined) | inactive: 5.9% |
| O=C(NCC1(N2CCCCC2)CCCCC1)c1cccs1 | inactive: -11% |
| COc1ccc(C(=O)NCC2(N3CCCCC3)CCCCC2)cc1 | inactive: -11.8% |
| CCC(c1nnnn1C1CCCC1)N1CCC(n2c(=O)[nH]c3ccccc32)CC1 (centres undefined) | inactive: 2.3% |
| COc1ccc(C(=O)NCC2(N3CCCCC3)CCCCC2)c(OC)c1OC | inactive: -10% |
| CC(C)(C)OC(=O)N1CCC(N(C(=O)c2ccccc2)c2ccc(F)cc2)CC1 | inactive: 1.7% |
| CSc1ccccc1C(=O)NCC1(N2CCCCC2)CCCCC1 | inactive: -7.5% |
| Cc1cccc(NC2(C#N)CCN(Cc3ccccc3)CC2)c1 | inactive: -1.8% |
| O=c1[nH]c2ccccc2n1C1CCN(C(c2ccccc2)c2nnnn2C2CCCCC2)CC1 (centres undefined) | inactive: 4.6% |
| O=c1[nH]c2ccccc2n1C1CCN(C(c2cccc3ccccc23)c2nnnn2C2CCCC2)CC1 (centres undefined) | inactive: 18.7% |
| COc1cc(C(=O)NCC2(N(C)C)CCCCC2)ccc1OC(F)F | inactive: 8.2% |
| CCOC(=O)N1CCC(Nc2cccc(C)c2)CC1 | inactive: 5.5% |
| CCOc1ccc(C)cc1CN(CCCl)CCCl | inactive: 9.6% |
| CC(C)(C)n1nnnc1C(c1ccccc1)N1CCC(n2c(=O)[nH]c3ccccc32)CC1 (centres undefined) | inactive: -7.2% |
| O=C1CCN(Cc2ccccc2)CC1 | inactive: -12.4% |
| O=C(NCC1(N2CCCCC2)CCCCC1)c1ccc(F)cc1 | inactive: 0.2% |
| CCCCn1nnnc1C(c1cc2ccccc2o1)N1CCC(n2c(=O)[nH]c3ccccc32)CC1 (centres undefined) | inactive: 12.6% |
| O=P1(N(CCCl)CCCl)SCCCS1 | inactive: -2.8% |
| CCCCOc1ccc(C(=O)NCC2(N3CCOCC3)CCCCC2)cc1 | inactive: -17.3% |
| COc1ccc(NC2CCN(CCc3ccccc3)CC2)c(OC)c1 | inactive: -1.8% |
| CCOC(=O)N1CCC(Nc2ccc(F)cc2)CC1 | inactive: -6.4% |

Reference: PubChem BioAssay AID602438 (Sanford-Burnham Center for Chemical Genomics, 2012)
